What was measured:
NCI-H1975 cells = assay: NCI-H1975 xenograft model in B-NDG mice; format: in vivo
Experimental: The lengths of the long axis and the short axis of the tumor were measured and the volume of the tumor was calculated as 0.5×(long axis)×(short axis)^2. The tumor growth inhibition (TGI) was calculated using the following formula: TGI (%)=[1−(Ti−T0)/(Vi−V0)]×100. Ti is the average tumor volume in the treatment group on day i. T0 is the average tumor volume in the treatment group on day zero. Vi is the average tumor volume in the control group on day i. V0 is the average tumor volume in the control group on day zero. T-test was performed for statistical analysis. […] P<0.05 is a threshold to indicate significant difference.

[1] = test system: patient-derived ampullary tumor fragments; assay: Human ampullary carcinoma PDX model; format: in vivo, B-NDG mice; conditions: for TGI (%): Day 21; for Tumor volume Day 0: day of grouping
Experimental: The ADCs were tested for their effect in human ampullary carcinoma PDX model.
The mice were then injected with PBS, ADCs or Amivantamab (Janssen, Cat #: LFS0L03) by intravenous (i.v.) administration.

[2] = Table 25 study, 3 mg/kg i.v. QW x2

Cetuximab analog-ADC
Tumor volume Day 0 (NCI-H1975 cells; Table 25 study (tumor about 200 mm^3), 3 mg/kg i.v. QW x2, day of grouping): 193 ± 11 mm^3
Tumor volume Day 17 (NCI-H1975 cells; [2]): 352 ± 116 mm^3
Tumor volume Day 31 (NCI-H1975 cells; [2]): 1712 ± 262 mm^3
TGI (%) (NCI-H1975 cells; Table 25 study, 3 mg/kg i.v. QW x2, Day 31): 51.7%
Tumor volume Day 14 ([1]; 3 mg/kg i.v. QW x2): 413 ± 72 mm^3
Tumor volume Day 21 ([1]; 3 mg/kg i.v. QW x2): 440 ± 102 mm^3
TGI (%) ([1]; 3 mg/kg i.v. QW x2): 80.2%
Tumor volume Day 0 ([1]; 3 mg/kg i.v. QW x2): 273 ± 11 mm^3
Tumor volume Day 14 ([1]; 6 mg/kg i.v. QW x2): 290 ± 40 mm^3
Tumor volume Day 21 ([1]; 6 mg/kg i.v. QW x2): 234 ± 71 mm^3
TGI (%) ([1]; 6 mg/kg i.v. QW x2): 104.7%
Tumor volume Day 0 ([1]; 6 mg/kg i.v. QW x2): 273 ± 14 mm^3
TGI ([1]; group G6, Day 39): 78.7%
TGI ([1]; group G7, Day 39): 57.5%
